These results are taken from patent publication US20210253671A1.

This assay addresses IL-2 receptor (IL-2R).

B1: IL2-Linker2-AAT (X=Ser; Z=Ser) (ligand)
chain: [here about 150 residues without letters]GGGGSGGGGSEDPQGDAAQKTDTSHHDQDHPTFNKITPNLAEFAFSLYRQLAHQSNSTNIFFSPVSIATAFAMLSLGTKADTHDEILEGLNFNLTEIPEAQIHEGFQELLRTLNQPDSQLQLTTGNGLFLSEGLKLVDKFLEDVKKLYHSEAFTVNFGDTEEAKKQINDYVEKGTQGKIVDLVKELDRDTVFALVNYIFFKGKWERPFEVKDTEEEDFHVDQVTTVKVPMMKRLGMFNIQHSKKLSSWVLLMKYLGNATAIFFLPDEGKLQHLENELTHDIITKFLENEDRRSASLHLPKLSITGTYDLKSVLGQLGITKVFSNGADLSGVTEEAPLKLSKAVHKAVLTIDEKGTEAAGAMFLEAIPMSIPPEVKFNKPFVFLMIEQNTKSPLFMGKVVNPTQK
Consider B1, for which the EC50, CTLL-2 cell-based assay worked out at 0.15 nM.

B2: IL2 (X = Ser)-linker1-AAT (Z = Cys) (ligand)
chain: [here about 150 residues without letters]GSTSGSEDPQGDAAQKTDTSHHDQDHPTFNKITPNLAEFAFSLYRQLAHQSNSTNIFFSPVSIATAFAMLSLGTKADTHDEILEGLNFNLTEIPEAQIHEGFQELLRTLNQPDSQLQLTTGNGLFLSEGLKLVDKFLEDVKKLYHSEAFTVNFGDTEEAKKQINDYVEKGTQGKIVDLVKELDRDTVFALVNYIFFKGKWERPFEVKDTEEEDFHVDQVTTVKVPMMKRLGMFNIQHCKKLSSWVLLMKYLGNATAIFFLPDEGKLQHLENELTHDIITKFLENEDRRSASLHLPKLSITGTYDLKSVLGQLGITKVFSNGADLSGVTEEAPLKLSKAVHKAVLTIDEKGTEAAGAMFLEAIPMSIPPEVKFNKPFVFLMIEQNTKSPLFMGKVVNPTQK
The molecule B2 displayed an EC50, CTLL-2 cell-based assay of 1.5 nM.
